Source: patent US7662973B2, “Fluorescent detection method and reagent” (GE Healthcare UK Limited, priority 2000, dated 2010)

Amino acid sequences for entries named in this document (tags omitted).
UniProt P38489, whole entry: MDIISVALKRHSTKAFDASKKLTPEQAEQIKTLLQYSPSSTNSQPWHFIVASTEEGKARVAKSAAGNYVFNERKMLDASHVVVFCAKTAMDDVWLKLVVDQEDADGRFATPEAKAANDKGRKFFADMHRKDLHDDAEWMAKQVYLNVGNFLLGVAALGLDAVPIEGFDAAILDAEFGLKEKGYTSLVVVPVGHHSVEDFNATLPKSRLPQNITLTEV

Target: E. coli B nitroreductase (Escherichia coli, UniProt P38489)
Conditions: pH 7.5; tested form: K salt

`CC1(C)C(=CC=CC=CC2=[N+](Cc3cc([N+](=O)[O-])cc([N+](=O)[O-])c3)c3ccc(S(=O)(=O)[O-])cc3C2(C)C)N(CCCCCC(=O)O)c2ccc(S(=O)(=O)O)cc21` gave a Km of 8.6 µM.
